{
  "source": "patent US6936187B2",
  "about": "“Functionalized cubic liquid crystalline phase materials and methods for their preparation and use” (priority 2001, dated 2005)",
  "conditions": "monoolein/water cuboplex gels with ketoprofen",
  "data": [
    {"substance": "di(canola ethyl ester) dimethyl amine chloride [DEEDAC]", "values": [
      {"measurement": "level at which the additive can be included in cuboplex gel", "result": "greater than 20%"}
    ]}
  ]
}
